{
  "source": "paper PMC6359284",
  "about": "“Identification, Characterization, and Optimization of Integrin αvβ6-Targeting Peptides from a One-Bead One-Compound (OBOC) Library: Towards the Development of Positron Emission Tomography (PET) Imaging Agents” (Molecules, 2019)",
  "target": "integrin αvβ6 on DX3puroβ6 cells (UniProt P06756 31-1048; P18564 22-788)",
  "details": "one partner purified",
  "data": [
    {"binder": "VGDLTYLKKKVART", "note": "[peptide 1i, VGDLTYLKK(FB)KVART]", "values": [
      {"measurement": "DX3puroβ6/DX3puro binding selectivity ratio", "value": "3.1 ± 0.8 :1"}
    ]}
  ]
}
